Earlier results on one substance are cited in patent US20050163849A1, “Compositions and dosage forms for enhanced absorption of iron” (priority 2003, published 2005).

The conditions of data set [1]: cited from earlier work.
For data set [2] the following is noted: cited from earlier work. The source holds these as a separate data set.

Like-named read-outs stand apart in the source and are kept apart here.

iron: the “Individuals reporting undesirable symptoms” value in data set [1] (200 mg of iron per day, divided into three equal portions) is 25%. In addition, in data set [1] (iron dosage 400 mg), the Undesirable side effects is 40%. For the same substance, the “Fraction of oral dose absorbed” value in data set [2] (195 mg oral daily dose) is reported as 18%; in data set [2] (total daily dose of 35 mg given orally), 40%.
